Data on 1 molecule can be found in patent US6994868B2, “Compositions useful as inhibitors of ERK” (Vertex Pharmaceuticals Incorporated, priority 2000, dated 2006).

Chains of the proteins cited; added tags and fusions are not shown.
UniProt P28482, whole entry: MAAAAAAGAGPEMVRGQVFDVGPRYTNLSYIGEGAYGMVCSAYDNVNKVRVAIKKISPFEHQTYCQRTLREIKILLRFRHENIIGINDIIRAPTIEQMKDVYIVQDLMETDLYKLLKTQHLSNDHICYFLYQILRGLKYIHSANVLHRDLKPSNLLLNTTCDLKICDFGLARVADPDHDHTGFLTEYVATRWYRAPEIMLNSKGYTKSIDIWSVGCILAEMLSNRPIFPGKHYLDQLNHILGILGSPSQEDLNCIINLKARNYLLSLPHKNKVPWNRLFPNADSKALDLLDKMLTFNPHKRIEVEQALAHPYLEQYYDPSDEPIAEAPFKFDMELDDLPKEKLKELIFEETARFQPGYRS

The test deals with activated ERK2 (Homo sapiens, UniProt P28482). As to the kind of experiment: ERK inhibition assay (spectrophotometric coupled-enzyme assay). Type of test: biochemical. As to conditions: activated ERK2 10 nM, 65 μM ATP, 200 μM erktide peptide, 30° C., pH 7.5; read-out: ERK2 Inhibitory Activity (Ki class).

pKi: −log10 of the molar value.

The pKi is the Ki on a negative log10 scale, so that one unit is a factor of ten. `COc1cccc(-c2cn[nH]c2-c2c[nH]c(C(=O)NC(C)C)c2)c1` [II-A-159]: the pKi is 5.30 to 6.00.
